# Test results taken from ChEMBL document CHEMBL4425117 (Bioorg Med Chem Lett, 2016).
# The chains behind the UniProt entries cited, without tags or fusion partners.
# UniProt P25101, whole entry: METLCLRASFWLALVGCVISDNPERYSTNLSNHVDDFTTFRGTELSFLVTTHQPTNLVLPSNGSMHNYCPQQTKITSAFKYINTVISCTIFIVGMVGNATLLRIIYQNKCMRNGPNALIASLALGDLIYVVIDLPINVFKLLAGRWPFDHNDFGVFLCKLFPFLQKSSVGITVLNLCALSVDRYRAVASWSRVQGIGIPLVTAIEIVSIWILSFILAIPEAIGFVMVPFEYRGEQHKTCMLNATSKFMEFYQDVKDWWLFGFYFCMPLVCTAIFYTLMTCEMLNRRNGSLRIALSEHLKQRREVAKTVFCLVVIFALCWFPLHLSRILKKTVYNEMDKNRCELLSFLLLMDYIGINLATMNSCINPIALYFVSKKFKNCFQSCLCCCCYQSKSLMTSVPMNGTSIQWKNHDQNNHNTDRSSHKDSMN
# Target: Endothelin-1 receptor (Homo sapiens, UniProt P25101)
# Assay: Displacement of [125I]-ET-1 from human ETA receptor expressed in CHO cell membranes after 2 hrs by scintillation counting
structure (smiles),measurement,value
COc1nc(C)cnc1NS(=O)(=O)c1cccnc1-c1ccc(-c2nnco2)cc1 [ZIBOTENTAN],IC50,21 nM
